# Literature values in patent publication US20020193351A1, “Fungicidal and bactericidal compositions for plants containing phosphonate and phosphate salts, metal chelates, and derivatives thereof” (priority 1996, published 2002).
# Test system: plants
# Conditions: foliar applications; cited from earlier work
substance,measurement,value
iron ethylenediamine-di-o-hydroxyphenylacetic acid [Fe-EDDHA],Phytotoxicity rankings of Fe chelates,least phytotoxic
